Target: SARS-CoV-2 papain-like protease (Severe acute respiratory syndrome coronavirus 2, UniProt P0DTD1)
Type: biochemical
Details: read-out: IC50, inhibitory activity on novel coronavirus papain-like protease

`Cc1coc2c1C(=O)C(=O)c1c-2ccc2c(C)cccc12` [tanshinone I, Tanshinone I] was tested, and the IC50 was 2210 nM.
